Laboratory results as given in US4756904A, “Method of imaging the heart using copper-64 citrate” (Oak Ridge Associated Universities, Inc., priority 1986, dated 1988).
Where two headings read alike, the source gives them in different places.

Tests used:
[1] = dog, intravenous
Description: (§1) Sixteen closed-chest studies were performed in 6 healthy, adult mongrel dogs of both sexes weighing 15 to 30 kg. The dogs were maintained on a standard laboratory diet which was discontinued 24 hours prior to study. The animals were anesthetized using a combination of xylazine and sodium pentobarbital. Transmission cross-sectional scans of the chest area were performed on each dog with an ECAT II scanner using a ^68 Ge ring source with medium resolution filters and standard shadow shields. Measured attenuation coefficients were used for reconstructing the emission tomographs. […] Serial scans of the heart from base to apex in 10-15 mm steps were made starting 3-5 minutes after injection. After each series was completed, the ECAT II bed was returned to the original position and the dogs were rescanned. This procedure was repeated over a 2 to 4 hour period. Each set of scans required approximately 1 hour for 6 slices, so that 2 to 4 sets of images were obtained in each study. Sequential images were also obtained through a 20-mm section of the heart over a 2-hour period. Additional images from 1 dog were obtained using the new high-resolution ECAT III scanner. […] The animals were injected through a cannula or catheter in the leg and heparanized venous blood samples were removed from the opposite side. Known aliquots of whole blood, plasma, and erythrocytes were assayed in a well-type scintillation counter to determine the ^64 Cu levels present in the different components.

myocardium = conditions: dog
Description: as §1

plasma albumin = conditions: intravenous; cited from earlier work

## copper-64 citrate [^64 Cu citrate]
[1]
  presence in blood: present in blood at low concentrations
[1]; after 1 hour
  total ^64 Cu in the blood: < 6%
[1]; within the first 30 minutes after injection
  total ^64 Cu in the blood: 10 % of the injected dose
myocardium; ECAT II and III scans
  ratios of heart to blood and other surrounding tissues: sufficiently high ratios of heart to blood and other surrounding tissues necessary for imaging
myocardium; scans and graphs
  retention of ^64 Cu: retained in the heart tissue rather than the blood
Heart tissue; 2 dogs sacrificed, 15-mm heart sections
  concentration of ^64 Cu in heart tissue: there was a concentration of the ^64 Cu in the heart tissue
Heart tissue; compared with values reported for ^201 Tl, ^52 Mn, ^81 Rb
  myocardial tissue concentration compared with ^201 Tl, ^52 Mn or ^81 Rb: not as high as those reported using ^201 Tl, ^52 Mn, or ^81 Rb
Plasma albumin
  binding in plasma: bound primarily to plasma albumin
